From US9234178B2, “Differentiation of human pluripotent stem cells” (Janssen Biotech, Inc., priority 2008, dated 2016) come the findings set out here.

Structures are written as SMILES. Where two headings read alike, the source gives them in different places.

The subject of this experiment is cells expressing markers characteristic of the pancreatic endocrine lineage. Briefly: Screening of BIOMOL Kinase Inhibitor Library, real-time PCR (Example 7). The following applies: Homo sapiens, 144 h. (In qPCR the cycle at which signal appears reflects the starting amount.)

As to `N#CC(=C(/N)Sc1ccccc1N)/C(C#N)=C(\N)Sc1ccccc1N` [Well B2, U-0126], the fold induction at 4 µM (read-out: Ratio vs. Control: Insulin to Glucagon) came out at 2.4 and the fold induction at 4 µM (read-out: Ratio vs. Control: MAFA to Arx4) was found to be 1.3.
